System: FVB-Tg(Sod1*G86R) mice
Assay: Survival of treated ALS model mice
Assay type: in vivo
Details: Tg males
Experimental: The mice enrolled were FVB-Tg(Sod1*G86R)M1Jwg/J mice from JAX laboratories. Animals were group-housed (10 per cage) in a temperature-controlled room (22±2° C.) with a 12/12-hour light/dark cycle. Food and water were feed ad-libitum. […] Breeding was realized (since 2013 may) in SOPF facility and genotyping is performed by qPCR (from tail biopsy). Animal are identified with earrings.
Mice were handled and weighted at the age of 60 days. Canula implantation in intra cerebro-ventricular (ICV) by stereotaxie start at this date and mice are acclimated during 1 week.
(Gurney and al, Neurology, 1998). Then they were evaluated, twice a week (i.e. body weight and neuroscore), from the age of 67 days to their death.
Two different treatments are performed from 75 days to death: • HT_pHPL prepared as described in example 1 and at 1 g/L, pH 7.4 versus vehicle. The dose of HT_pHPL administrated by intermittent ICV was 4 μL, three times a week at rate of 0.5 μL/min. […]

In the case of `Nc1nc2ccc(OC(F)(F)F)cc2s1` [Riluzole], the “effect in survival duration” value is reported as “no effect” and the onset of death (Day 91 without treatment) is reported as 102 days.

From US11744863B2, “Process for preparing a pooled human platelet lysate, pooled human platelet lysate and its use for treating neurological disorders” (priority 2017, dated 2023)
